Test system: HDAC6/HDAC1 (Homo sapiens)
Assay: Selectivity ratio for Histone deacetylase 6 versus Histone deacetylase 1

SMILES	Selectivity
CC1(C)NC(=O)[C@H](CCCCCC(=O)NO)NC(=O)[C@H]2CCCN2C(=O)[C@H](Cc2ccccc2)NC1=O	86
CN(C)c1ccc(C(=O)NCCCCCCC(=O)NO)cc1	0.35

Reference: ChEMBL document CHEMBL1138783, “Subtype selective substrates for histone deacetylases” (J Med Chem, 2004)
